Experimental data as given in patent publication US20040076581A1, “Use of neuropeptide y1 receptor binding compounds in the treatment and diagnosis of cancer” (priority 2000, published 2004).

The chains behind the UniProt entries cited, without tags or fusion partners.
UniProt P49146, whole entry: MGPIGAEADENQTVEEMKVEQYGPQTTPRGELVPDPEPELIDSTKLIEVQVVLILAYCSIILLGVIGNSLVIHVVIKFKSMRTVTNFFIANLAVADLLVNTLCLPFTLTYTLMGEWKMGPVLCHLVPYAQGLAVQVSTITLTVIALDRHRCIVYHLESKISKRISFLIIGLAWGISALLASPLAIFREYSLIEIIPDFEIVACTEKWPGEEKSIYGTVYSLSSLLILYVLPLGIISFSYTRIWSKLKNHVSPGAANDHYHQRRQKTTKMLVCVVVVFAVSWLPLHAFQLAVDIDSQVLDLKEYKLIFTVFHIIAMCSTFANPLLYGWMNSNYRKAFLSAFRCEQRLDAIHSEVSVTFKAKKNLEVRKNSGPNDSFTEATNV

Target: T1, Y2 receptors in normal breast (Homo sapiens, UniProt P49146)
T1 construct: Twenty-μm thick cryostat sections of the tissue samples were processed for NPY receptor autoradiography; from tissue; host or cells: human normal breast tissue adjacent to carcinoma, cryostat sections
Experiment: NPY receptor autoradiography, displacement of 125I-PYY in adjacent normal breast sections
Type: binding
Settings: FIG. 1
Experimental: For autoradiography, tissue sections were mounted on precleaned microscope slides and stored at −20° C. for at least 3 days to improve adhesion of the tissue to the slide. […] The slides were incubated at room temperature with the radioligand for 120 min.
In selected cases, displacements with a single concentration (25 nM) of each of the above mentioned peptides were performed.
On completion of the incubation, the slides were washed four times for 5 min each in ice-cold preincubation solution, pH 7.4. They were rinsed twice in ice-cold distilled water, and then dried under a stream of cold air at 4° C., apposed to ^3H-Hyperfilms and exposed for 7 days in x-ray cassettes.
Tissue standards for iodinated compounds (Amersham) were used for this purpose.

PYY(3-36)
displacement of 125I-PYY binding in breast (single concentration 25 nM of unlabeled peptide, adjacent normal breast): Complete displacement | affinity in surrounding breast (rank order of potency) (surrounding normal breast expressing predominantly Y2): high affinity
